Experimental data taken from publication PMC12400800, “Significantly enhancing human antibody affinity via deep learning and computational biology-guided single-point mutations” (Briefings in Bioinformatics, 2025).

B1: DR5-Ab1 (DR5-Ab H:L100I) (antibody, V domains shown)
VH: EVQLQQSGAEVVKPGASVKLSCKASGFNIKDTFIHWVKQAPGQGLEWIGRIDPANTNTKYDPKFQGKATITTDTSSNTAYMELSSLRSEDTAVYYCVRGIYTYYFDYWGQGTLVTVSS
VL: EIVMTQSPATLSVSPGERATLSCRASQSISNNLHWYQQKPGQAPRLLIKFASQSITGIPARFSGSGSGTEFTLTISSLQSEDFAVYYCQQGNSWPYTFGQGTKLEIK
B2: DR5-Ab2 (DR5-Ab H:Y104G) (antibody, V domains shown)
VH: EVQLQQSGAEVVKPGASVKLSCKASGFNIKDTFIHWVKQAPGQGLEWIGRIDPANTNTKYDPKFQGKATITTDTSSNTAYMELSSLRSEDTAVYYCVRGLYTYGFDYWGQGTLVTVSS
VL: EIVMTQSPATLSVSPGERATLSCRASQSISNNLHWYQQKPGQAPRLLIKFASQSITGIPARFSGSGSGTEFTLTISSLQSEDFAVYYCQQGNSWPYTFGQGTKLEIK
B3: DR5-Ab3 (DR5-Ab H:I29N) (antibody, V domains shown)
VH: EVQLQQSGAEVVKPGASVKLSCKASGFNNKDTFIHWVKQAPGQGLEWIGRIDPANTNTKYDPKFQGKATITTDTSSNTAYMELSSLRSEDTAVYYCVRGLYTYYFDYWGQGTLVTVSS
VL: EIVMTQSPATLSVSPGERATLSCRASQSISNNLHWYQQKPGQAPRLLIKFASQSITGIPARFSGSGSGTEFTLTISSLQSEDFAVYYCQQGNSWPYTFGQGTKLEIK
B4: DR5-Ab4 (DR5-Ab H:I29Y) (antibody, V domains shown)
VH: EVQLQQSGAEVVKPGASVKLSCKASGFNYKDTFIHWVKQAPGQGLEWIGRIDPANTNTKYDPKFQGKATITTDTSSNTAYMELSSLRSEDTAVYYCVRGLYTYYFDYWGQGTLVTVSS
VL: EIVMTQSPATLSVSPGERATLSCRASQSISNNLHWYQQKPGQAPRLLIKFASQSITGIPARFSGSGSGTEFTLTISSLQSEDFAVYYCQQGNSWPYTFGQGTKLEIK

biological target: Recombinant death receptor 5 (DR5) (Homo sapiens, UniProt O14763); conditions: one partner purified

Compared with B1, B2 is 52-fold higher in Kd: 0.681 nM for the first, 35.1 nM for the second. The first binds more tightly here.

B3 and B4 are within 1.5-fold of each other in Kd: 5.48 nM for the first, 5.43 nM for the second.

Going from B1 to B2, the koff rises from 0.000174 s⁻¹ to 0.00169 s⁻¹ (9.7-fold).

B3 and B4 are within 1.5-fold of each other in koff: 0.000976 s⁻¹ for the first, 0.00106 s⁻¹ for the second.

Going from B1 to B2, the kon falls from 281000 M⁻¹ s⁻¹ to 45200 M⁻¹ s⁻¹ (6.2-fold).

B3 and B4 are within 1.5-fold of each other in kon: 186000 M⁻¹ s⁻¹ for the first, 212000 M⁻¹ s⁻¹ for the second.
